Data as given in US6395256B1 (priority 1997, dated 2002).
pEC50: −log10 of the molar value.

Assays:
[1] = target: T1, active SAH hydrolase (Bos taurus, UniProt Q3MHL4); test: 3H-adenosine displacement using active SAH hydrolase; format: binding, bovine
T1 construct: SAH hydrolase is purified with classical chromatographical methods to homogeneity from organs e.g. from bovine kidney; from tissue; host or cells: bovine kidney
T1 sequence (Q3MHL4 2-432 limits assumed): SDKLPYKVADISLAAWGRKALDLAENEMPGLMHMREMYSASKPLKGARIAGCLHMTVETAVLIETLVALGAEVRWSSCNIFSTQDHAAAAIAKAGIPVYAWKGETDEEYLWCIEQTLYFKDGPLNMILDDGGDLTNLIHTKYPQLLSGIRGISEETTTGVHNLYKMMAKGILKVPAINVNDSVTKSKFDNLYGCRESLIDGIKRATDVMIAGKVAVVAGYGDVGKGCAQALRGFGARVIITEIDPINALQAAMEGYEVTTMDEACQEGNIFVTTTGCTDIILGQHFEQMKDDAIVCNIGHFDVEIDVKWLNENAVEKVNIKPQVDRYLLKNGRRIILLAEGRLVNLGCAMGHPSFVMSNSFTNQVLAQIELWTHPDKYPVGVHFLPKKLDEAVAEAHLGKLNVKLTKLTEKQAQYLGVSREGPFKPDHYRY
Procedure: SAH hydrolase is purified with classical chromatographical methods to homogeneity from organs e.g. from bovine kidney. Fresh bovine kidney (450 g), obtained from the local slaughterhouse were homogenized in two volumes of 50 mM potassium phosphate buffer pH 7.0, 1 mM DTT, 1 mM EDTA and 10 mM PMSF. The homogenate was centrifuged at 20000×g for 60 min. […] After centrifugation at 20000×g for 30 min the precipitate was disolved in 300-400 ml 20 mM Tris/HCl pH 7.5, 1 mM DTT and 1 mM EDTA and dialyzed against the same buffer.

[2] = target: T2, reduced SAH hydrolase (Bos taurus, UniProt Q3MHL4); test: 3H-adenosine displacement using reduced SAH hydrolase; format: binding, bovine
T2 construct: SAH hydrolase is purified with classical chromatographical methods to homogeneity from organs e.g. from bovine kidney; from tissue; host or cells: bovine kidney
T2 sequence (Q3MHL4 2-432 limits assumed): T1 sequence (Q3MHL4 2-432 limits assumed)
Procedure: 100 μl reduced SAH hydrolase (1 μg/300 μl)
50 μl buffer—20 mM Tris, 40 mM Hepes pH 7.0
Therefore the samples are incubated over night. The assay mixture is separated through nitrocellulose filters with a filtration equipment.

pEC50 [1]: 6.86 | pEC50 [2]: 5.00
Substance: diadenosine-diphosphate
